Consider two substances from patent US20070086956A1, “Method for accelerating the rate of mucociliary clearance” (BAYER AKTIENGESELLSCHAFT, priority 1998, published 2007).

Experiment [1] addresses Factor XIa (human) (UniProt P03951). Description: enzyme inhibition, FXIa 0.1 nM, substrate Boc-Glu(OBzl)-Ala-Arg-AMC.
Experiment [2] addresses human plasmin (human) (UniProt P00747). Description: enzyme inhibition, human plasmin 50 pM, substrate GPK-AMC.
Experiment [3] has as its target human factor Xa (human) (UniProt P00742). Nature of the experiment: enzyme inhibition, factor Xa 0.87 nM, aprotinin at 31 M as printed.
The target in experiment [4] is human plasma kallikrein (human) (UniProt P03952). Description: enzyme inhibition, human plasma kallikrein 0.2 nM, substrate PFR-AMC.

As to “aprotinin (Trasylol®) (from UniProt P00974 36-93) (other; other documents disagree on this pair)”, the Ki is 0.27 µM in experiment [1] and 0.0002 µM in experiment [2].

Turning to “aprotinin (Trasylol®) (from UniProt P00974 36-93)”, the % Inhibition in experiment [3] was 5%. The substance further returned a Ki in experiment [4] of 0.023 µM.

A word on the Ki: it is the dissociation constant of the complex between target and ligand, obtained from inhibition or displacement. Read a low Ki as a stronger hold on the target. What is called % Inhibition is the drop in the measured response relative to a control, in per cent. Lower therefore signals little suppression.
